# Test results from US20120094989A1, “5-HT RECEPTOR MODULATING COMPOUNDS” (priority 2009, published 2012).
# The chains behind the UniProt entries cited, without tags or fusion partners.
# UniProt Q13639, whole entry: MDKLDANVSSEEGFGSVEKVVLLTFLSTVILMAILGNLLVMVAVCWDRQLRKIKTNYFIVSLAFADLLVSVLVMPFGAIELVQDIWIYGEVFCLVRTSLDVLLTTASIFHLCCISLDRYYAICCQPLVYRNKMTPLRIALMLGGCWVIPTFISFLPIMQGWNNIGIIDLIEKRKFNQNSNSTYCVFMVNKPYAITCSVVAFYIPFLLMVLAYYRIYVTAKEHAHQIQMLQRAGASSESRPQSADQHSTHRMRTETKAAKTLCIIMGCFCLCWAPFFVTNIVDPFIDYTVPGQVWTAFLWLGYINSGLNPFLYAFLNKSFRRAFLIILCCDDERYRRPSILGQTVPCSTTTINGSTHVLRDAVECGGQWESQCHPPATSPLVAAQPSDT
# Several values for one entry are separate records, joined by “and”; a condition that tells them apart may be missing. Equal values may be shown once.
# Target: human 5-HT4(b) receptor (Homo sapiens, UniProt Q13639)
# Assay: Radioligand binding assay with [3H]GR113808
# Details: [3H]GR113808 competition, membranes of HEK293 cells stably expressing human 5-HT4(b) receptor; hyphen-separated values taken as single determinations
smiles,measurement,value
COC(=O)c1ccccc1-c1ccc(CN2CCC(NC(=O)c3cc(Cl)c(N)cc3OC)CC2)cc1,Binding affinity (pKd value),6.96 and 7.26
